Measurements reported in US20120122928A1 (priority 2010, published 2012).

Conditions: LC-MS determination in the neutral range, pH 7.8, 0.001 molar aqueous ammonium hydrogencarbonate and acetonitrile

| Compound | Log P [b] |
| --- | --- |
| Cc1cc(C(F)(F)F)nn1CC(=O)N1CCC(c2nc(C3=NOC(COc4c(F)cccc4Cl)C3)cs2)CC1 (centres unmarked) [I-46] | 3.56 |
| O=C(Cn1nc(C(F)F)cc1C(F)F)N1CCC(c2nc(C3=NOC(COc4ccccc4C=NO)C3)cs2)CC1 (mixture of isomers) [I-64] | 2.59 |
| O=C(Cn1nc(C(F)F)cc1C(F)F)N1CCC(c2nc(C3=NOC(COc4c(Cl)cccc4Cl)C3)cs2)CC1 (centres unmarked) [I-1] | 3.66 |
| Cc1ccc(C)c(NC(=O)N2CCC(c3nc(C4=NOC(COc5ccccc5)C4)cs3)CC2)c1 (centres unmarked) [I-41] | 3.28 |
| O=C(Cn1nc(C(F)F)cc1C(F)F)N1CCC(c2nc(C3=NOC(CSc4ccccc4Br)C3)cs2)CC1 (centres unmarked) [I-63] | 3.71 |
| Cc1cc(C(F)(F)F)nn1CC(=O)N1CCC(c2nc(C3=NOC(C(C)(C)c4c(F)cccc4F)C3)cs2)CC1 (centres unmarked) [I-62] | 4.15 |
| O=C(Cn1nc(C(F)F)cc1C(F)F)N1CCC(c2nc(C3=NOC(COc4c(F)cccc4Br)C3)cs2)CC1 (centres unmarked) [I-75] | 3.65 |
| CC(=O)c1ccccc1OCC1CC(c2csc(C3CCN(C(=O)Cn4nc(C(F)F)cc4C(F)F)CC3)n2)=NO1 (centres unmarked) [I-12] | 2.89 |
| O=C(Cn1nc(C(F)F)cc1C(F)F)N1CCC(c2nc(C3=NOC(CSc4c(Cl)cccc4Cl)C3)cs2)CC1 (centres unmarked) [I-58] | 3.96 |
| O=C(Cn1nc(C(F)F)cc1C(F)F)N1CCC(c2nc(-c3cc(COc4ccccc4)on3)cs2)CC1 [I-44] | 3.52 |
| O=C(CCC1CC(c2csc(C3CCN(C(=O)Cn4nc(C(F)F)cc4C(F)F)CC3)n2)=NO1)c1ccccc1 (centres unmarked) [I-6] | 3.13 |
| Cc1cc(C(F)(F)F)nn1CC(=O)N1CCC(c2nc(C3=NOC(COc4ccccc4)C3)cs2)CC1 (centres unmarked) [I-37] | 3.28 |
| CC(C)(c1c(F)cccc1Cl)C1CC(c2csc(C3CCN(C(=O)Nc4cc(C(F)F)ccc4C(F)F)CC3)n2)=NO1 (centres unmarked) [I-53] | 4.43 |
| Cc1cc(C(F)(F)F)nn1CC(=O)N1CCC(c2nc(C3=NOC(COc4c(F)cccc4F)C3)cs2)CC1 (centres unmarked) [I-54] | 3.32 |
| O=C(Cn1nc(C(F)F)cc1C(F)F)N1CCC(c2nc(C3=NOC(COc4c(F)cccc4Cl)C3)cs2)CC1 (centres unmarked) [I-74] | 3.39 |
| FC(F)c1cc(C(F)F)n(CC(=S)N2CCC(c3nc(C4=NOC(COc5ccccc5)C4)cs3)CC2)n1 (centres unmarked) [I-34] | 3.66 |
| Cc1ccccc1OCC1CC(c2csc(C3CCN(C(=O)Cn4nc(C(F)F)cc4C(F)F)CC3)n2)=NO1 (centres unmarked) [I-13] | 3.46 |
| O=C(Cn1nc(C(F)F)cc1C(F)F)N1CCC(c2nc(C3=NOC(COc4c(Br)cccc4Br)C3)cs2)CC1 (centres unmarked) [I-36] | 3.82 |
| Cc1ccccc1SCC1CC(c2csc(C3CCN(C(=O)Cn4nc(C(F)F)cc4C(F)F)CC3)n2)=NO1 (centres unmarked) [I-70] | 3.75 |
| Cc1ccc(C)c(NC(=O)N2CCC(c3nc(C4=NOC(COc5c(Cl)cccc5Cl)C4)cs3)CC2)c1 (centres unmarked) [I-56] | 3.9 |
| CC(C)(c1c(F)cccc1F)C1CC(c2csc(C3CCN(C(=O)Cn4nc(C(F)F)cc4C(F)F)CC3)n2)=NO1 (centres unmarked) [I-66] | 3.94 |
| Cc1ccc(Cl)cc1NC(=O)N1CCC(c2nc(C3=NOC(COc4c(F)cccc4Cl)C3)cs2)CC1 (centres unmarked) [I-51] | 3.78 |

| Compound | Log P [b] |
| --- | --- |
| O=C(Cn1nc(C(F)F)cc1C(F)F)N1CCC(c2nc(C3=NOC(C(O)(c4ccccc4)C(F)(F)F)C3)cs2)CC1 (centres unmarked) [I-49] | 3.13 |
| Cc1ccc(C)c(CC(=O)N2CCC(c3nc(C4=NOC(COc5ccccc5)C4)cs3)CC2)c1 (centres unmarked) [I-29] | 3.67 |
| CN(CC1CC(c2csc(C3CCN(C(=O)Cn4nc(C(F)F)cc4C(F)F)CC3)n2)=NO1)c1ccccc1 (centres unmarked) [I-14] | 3.64 |
| CC(C)(c1c(F)cccc1F)C1CC(c2csc(C3CCN(C(=O)Nc4cc(C(F)F)ccc4C(F)F)CC3)n2)=NO1 (centres unmarked) [I-68] | 4.04 |
| O=C(Cn1nc(C(F)F)cc1C(F)F)N1CCC(c2nc(C3=NOC(CSc4ccccc4F)C3)cs2)CC1 (centres unmarked) [I-55] | 3.47 |
| Cc1cc(C(F)(F)F)nn1CC(=O)N1CCC(c2nc(C3=NOC(COc4c(Cl)cccc4Cl)C3)cs2)CC1 (centres unmarked) [I-65] | 3.8 |
| COc1ccc(C)cc1NC(=O)N1CCC(c2nc(C3=NOC(COc4ccccc4)C3)cs2)CC1 (centres unmarked) [I-38] | 3.55 |
| O=C(Cn1nc(C(F)F)cc1C(F)F)N1CCC(c2nc(C3=NOC(CSc4ccccc4)C3)cs2)CC1 (centres unmarked) [I-10] | 3.51 |
| Cc1cc(C(F)F)nn1CC(=O)N1CCC(c2nc(C3=NOC(COc4c(Cl)cccc4Cl)C3)cs2)CC1 (centres unmarked) [I-45] | 3.4 |
| Cc1ccc(Cl)cc1NC(=O)N1CCC(c2nc(C3=NOC(COc4c(F)cccc4F)C3)cs2)CC1 (centres unmarked) [I-50] | 3.54 |
| O=C(Cn1nc(C(F)F)cc1C(F)F)N1CCC(c2nc(C3=NOC(COc4ccccc4F)C3)cs2)CC1 (centres unmarked) [I-3] | 3.2 |
| COc1ccccc1OCC1CC(c2csc(C3CCN(C(=O)Cn4nc(C(F)F)cc4C(F)F)CC3)n2)=NO1 (centres unmarked) [I-26] | 3.03 |
| O=C(Cn1nc(C(F)F)cc1C(F)F)N1CCC(c2nc(C3=NOC(COc4ccccc4Cl)C3)cs2)CC1 (centres unmarked) [I-71] | 3.31 |
| Cc1ccc(Cl)cc1NC(=O)N1CCC(c2nc(C3=NOC(COc4ccccc4)C3)cs2)CC1 (centres unmarked) [I-33] | 3.5 |
| O=C(Cc1cc(Cl)ccc1Cl)N1CCC(c2nc(C3=NOC(COc4ccccc4)C3)cs2)CC1 (centres unmarked) [I-23] | 3.82 |
| CC(C)(c1c(F)cccc1Cl)C1CC(c2csc(C3CCN(C(=O)Cn4nc(C(F)F)cc4C(F)F)CC3)n2)=NO1 (centres unmarked) [I-69] | 4.21 |
| C[Si](C)(c1ccccc1)C1CC(c2csc(C3CCN(C(=O)Cn4nc(C(F)F)cc4C(F)F)CC3)n2)=NO1 (centres unmarked) [I-40] | 3.99 |
| O=C(Cn1nc(C(F)F)cc1C(F)F)N1CCC(c2nc(C3=NOC(CSc4ccccc4Cl)C3)cs2)CC1 (centres unmarked) [I-61] | 3.7 |
| Cc1cc(C(F)F)nn1CC(=O)N1CCC(c2nc(C3=NOC(COc4c(F)cccc4F)C3)cs2)CC1 (centres unmarked) [I-48] | 2.93 |
| Cc1cc(C(F)(F)F)nn1CC(=O)N1CCC(c2nc(C3=NOC(C(C)(C)c4c(F)cccc4Cl)C3)cs2)CC1 (centres unmarked) [I-67] | 4.36 |
| COc1cccc(C=O)c1OCC1CC(c2csc(C3CCN(C(=O)Cn4nc(C(F)F)cc4C(F)F)CC3)n2)=NO1 (centres unmarked) [I-72] | 2.94 |
| CC(O)(c1c(F)cccc1F)C1CC(c2csc(C3CCN(C(=O)Cn4nc(C(F)F)cc4C(F)F)CC3)n2)=NO1 (centres unmarked) [I-47] | 2.94 |
